Patent US11897862B2 (Gilead Sciences, Inc., priority 2022, dated 2024)

Amino acid sequences for entries named in this document (tags omitted). Residues count along the entry.
UniProt Q13422, whole entry: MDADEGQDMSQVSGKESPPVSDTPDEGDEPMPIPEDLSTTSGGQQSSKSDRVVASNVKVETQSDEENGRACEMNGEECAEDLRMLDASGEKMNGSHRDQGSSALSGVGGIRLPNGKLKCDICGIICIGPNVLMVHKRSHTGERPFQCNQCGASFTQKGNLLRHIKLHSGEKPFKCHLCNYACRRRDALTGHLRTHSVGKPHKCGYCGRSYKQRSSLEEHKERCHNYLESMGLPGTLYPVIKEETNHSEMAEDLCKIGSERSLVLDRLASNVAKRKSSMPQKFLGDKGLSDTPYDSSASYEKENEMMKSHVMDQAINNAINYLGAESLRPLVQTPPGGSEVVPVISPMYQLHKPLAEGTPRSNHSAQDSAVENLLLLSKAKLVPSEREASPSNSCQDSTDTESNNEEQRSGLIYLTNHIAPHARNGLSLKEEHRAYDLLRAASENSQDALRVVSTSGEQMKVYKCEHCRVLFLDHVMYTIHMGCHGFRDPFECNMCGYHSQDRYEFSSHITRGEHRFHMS
UniProt Q96SW2, whole entry: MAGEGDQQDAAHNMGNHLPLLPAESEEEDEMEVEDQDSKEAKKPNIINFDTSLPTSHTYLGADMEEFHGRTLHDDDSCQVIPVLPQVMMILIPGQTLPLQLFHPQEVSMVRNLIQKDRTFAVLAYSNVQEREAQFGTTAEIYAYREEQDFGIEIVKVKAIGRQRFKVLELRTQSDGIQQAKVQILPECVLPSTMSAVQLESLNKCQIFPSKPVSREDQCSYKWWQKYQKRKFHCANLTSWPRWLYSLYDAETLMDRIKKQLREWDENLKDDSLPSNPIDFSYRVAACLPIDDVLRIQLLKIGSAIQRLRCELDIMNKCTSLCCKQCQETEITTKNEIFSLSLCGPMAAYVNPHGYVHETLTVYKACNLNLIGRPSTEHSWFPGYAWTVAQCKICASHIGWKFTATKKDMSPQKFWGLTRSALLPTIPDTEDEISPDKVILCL
UniProt Q9UKS7, 1-500 isoform 2: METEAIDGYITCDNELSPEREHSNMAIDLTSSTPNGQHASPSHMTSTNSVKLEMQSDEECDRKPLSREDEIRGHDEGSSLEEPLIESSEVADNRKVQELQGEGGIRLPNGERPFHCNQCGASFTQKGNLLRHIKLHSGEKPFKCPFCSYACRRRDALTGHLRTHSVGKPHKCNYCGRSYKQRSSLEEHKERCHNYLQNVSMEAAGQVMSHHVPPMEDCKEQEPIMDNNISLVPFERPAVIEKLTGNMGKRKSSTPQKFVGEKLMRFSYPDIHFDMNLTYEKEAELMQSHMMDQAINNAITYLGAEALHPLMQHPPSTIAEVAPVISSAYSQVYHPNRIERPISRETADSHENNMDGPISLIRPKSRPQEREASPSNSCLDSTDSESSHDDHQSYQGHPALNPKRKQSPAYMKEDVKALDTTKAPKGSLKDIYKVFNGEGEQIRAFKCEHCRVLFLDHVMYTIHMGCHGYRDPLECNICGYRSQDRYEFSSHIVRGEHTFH
UniProt Q9UJQ4, whole entry: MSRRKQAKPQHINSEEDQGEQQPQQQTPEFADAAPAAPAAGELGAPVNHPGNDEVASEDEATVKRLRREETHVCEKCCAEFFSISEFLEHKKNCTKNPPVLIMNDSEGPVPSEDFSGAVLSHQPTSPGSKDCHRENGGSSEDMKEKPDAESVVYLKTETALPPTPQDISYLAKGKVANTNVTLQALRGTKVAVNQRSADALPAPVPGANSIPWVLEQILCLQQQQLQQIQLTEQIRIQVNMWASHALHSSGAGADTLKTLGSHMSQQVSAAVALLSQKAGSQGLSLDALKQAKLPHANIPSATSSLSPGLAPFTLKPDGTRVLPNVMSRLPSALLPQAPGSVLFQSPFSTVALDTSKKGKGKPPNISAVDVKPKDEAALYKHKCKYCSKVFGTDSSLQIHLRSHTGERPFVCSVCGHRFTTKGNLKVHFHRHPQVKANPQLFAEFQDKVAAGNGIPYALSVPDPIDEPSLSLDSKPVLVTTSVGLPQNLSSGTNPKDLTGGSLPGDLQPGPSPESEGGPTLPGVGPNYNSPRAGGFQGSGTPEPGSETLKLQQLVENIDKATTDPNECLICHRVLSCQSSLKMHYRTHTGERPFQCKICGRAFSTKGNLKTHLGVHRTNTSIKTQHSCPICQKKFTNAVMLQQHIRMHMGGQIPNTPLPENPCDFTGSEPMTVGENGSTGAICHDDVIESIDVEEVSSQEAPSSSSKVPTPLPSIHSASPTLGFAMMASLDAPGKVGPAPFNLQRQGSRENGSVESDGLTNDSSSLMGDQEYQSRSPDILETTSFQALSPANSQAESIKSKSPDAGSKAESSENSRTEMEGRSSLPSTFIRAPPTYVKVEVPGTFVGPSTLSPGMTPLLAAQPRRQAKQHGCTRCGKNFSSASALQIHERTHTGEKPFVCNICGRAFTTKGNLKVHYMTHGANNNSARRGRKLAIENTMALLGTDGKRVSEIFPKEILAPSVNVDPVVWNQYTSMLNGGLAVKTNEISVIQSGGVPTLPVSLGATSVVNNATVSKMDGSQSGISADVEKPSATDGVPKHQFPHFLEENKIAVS
UniProt Q16531, whole entry partner: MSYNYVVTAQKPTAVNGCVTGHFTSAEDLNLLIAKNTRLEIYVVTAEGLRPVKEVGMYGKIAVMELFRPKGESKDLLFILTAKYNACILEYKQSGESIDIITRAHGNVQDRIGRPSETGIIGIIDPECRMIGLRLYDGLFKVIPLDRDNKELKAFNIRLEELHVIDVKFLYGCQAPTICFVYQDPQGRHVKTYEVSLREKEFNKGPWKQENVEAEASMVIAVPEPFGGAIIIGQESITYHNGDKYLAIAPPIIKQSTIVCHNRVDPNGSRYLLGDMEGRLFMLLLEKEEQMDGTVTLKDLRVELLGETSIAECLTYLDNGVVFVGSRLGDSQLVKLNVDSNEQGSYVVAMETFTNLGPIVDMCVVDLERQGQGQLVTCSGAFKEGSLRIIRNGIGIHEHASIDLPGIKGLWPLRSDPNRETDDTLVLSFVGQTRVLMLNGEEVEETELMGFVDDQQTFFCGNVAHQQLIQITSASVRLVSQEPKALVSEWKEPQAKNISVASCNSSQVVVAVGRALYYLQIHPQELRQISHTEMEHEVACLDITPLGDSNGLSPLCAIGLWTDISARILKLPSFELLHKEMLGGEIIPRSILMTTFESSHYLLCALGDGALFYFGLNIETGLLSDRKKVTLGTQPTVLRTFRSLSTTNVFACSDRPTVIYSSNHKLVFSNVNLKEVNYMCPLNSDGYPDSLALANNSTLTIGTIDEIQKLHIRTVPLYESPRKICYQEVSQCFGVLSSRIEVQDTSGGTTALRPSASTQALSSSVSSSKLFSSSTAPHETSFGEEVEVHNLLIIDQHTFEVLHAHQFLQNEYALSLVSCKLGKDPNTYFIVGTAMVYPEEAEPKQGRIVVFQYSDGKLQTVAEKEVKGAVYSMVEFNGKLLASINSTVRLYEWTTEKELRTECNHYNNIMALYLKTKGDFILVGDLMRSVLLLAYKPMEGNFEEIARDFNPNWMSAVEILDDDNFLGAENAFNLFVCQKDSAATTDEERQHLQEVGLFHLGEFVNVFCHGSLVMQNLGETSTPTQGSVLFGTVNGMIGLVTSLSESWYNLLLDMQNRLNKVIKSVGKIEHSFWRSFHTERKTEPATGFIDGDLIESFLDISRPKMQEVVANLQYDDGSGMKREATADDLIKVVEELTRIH

Columns and labels:
[1] = target: IKZF1 (Homo sapiens, UniProt Q13422+Q96SW2); experiment: HEK293 HiBiT in vitro degradation of IKZF1; conditions: for IKZF1 Dmax: maximum degradation at the highest concentration tested; for EC50: read-out: IKZF1 EC50, 18-24 hr incubation, normalized to DMSO control
[2] = target: IKZF2 (Homo sapiens, UniProt Q96SW2+Q9UKS7); experiment: HEK293 HiBiT in vitro degradation of IKZF2; conditions: for IKZF2 Dmax: maximum degradation at the highest concentration tested; for EC50: read-out: IKZF2 EC50, 18-24 hr incubation, normalized to DMSO control
[3] = target: SALL4 (Homo sapiens, UniProt Q96SW2+Q9UJQ4); experiment: HEK293 HiBiT in vitro degradation of SALL4; conditions: read-out: SALL4 EC50, 18-24 hr incubation, normalized to DMSO control

SMILES: O=C1CCC(N2Cc3c(ccc(C[C@H]4CCCC[C@@H]4NC4CC5CC5C4)c3F)C2=O)C(=O)N1 (stereo partly drawn)
- IKZF1 Dmax [1]: 43%
- EC50 [1]: 35 nM
- IKZF2 Dmax [2]: 98%
- EC50 [2]: 1 nM

SMILES: CCOCCN[C@H]1CCCC[C@@H]1Cc1ccc2c(c1)CN(C1CCC(=O)NC1=O)C2=O (stereo partly drawn)
- EC50 [1]: > 1000 nM
- IKZF2 Dmax [2]: 73%
- EC50 [2]: 55 nM

SMILES: O=C1CCC(N2Cc3cc(C[C@H]4CCC[C@@H](F)[C@@H]4NC4CCCCC4)ccc3C2=O)C(=O)N1 (relative stereo)
- EC50 [1]: > 1000 nM
- IKZF2 Dmax [2]: 93%
- EC50 [2]: 17 nM

SMILES: O=C1CCC(N2Cc3c(ccc(C[C@H]4OCCC[C@@H]4NC4CCCOCC4)c3F)C2=O)C(=O)N1 (stereo partly drawn)
- EC50 [1]: > 1000 nM
- IKZF2 Dmax [2]: 95%
- EC50 [2]: 9 nM
- EC50 [3]: > 10000 nM

SMILES: O=C1CCC(N2Cc3cc(C[C@H]4CCCC[C@@H]4NC4CCCc5cn[nH]c54)ccc3C2=O)C(=O)N1 (stereo partly drawn)
- IKZF1 Dmax [1]: 38%
- EC50 [1]: 121 nM
- IKZF2 Dmax [2]: 94%
- EC50 [2]: 71 nM
- EC50 [3]: > 10000 nM

SMILES: O=C1CCC(N2Cc3cc(C[C@H]4CCC(F)(F)C[C@@H]4NC4CCCCC4)ccc3C2=O)C(=O)N1 (relative stereo)
- IKZF1 Dmax [1]: 62%
- EC50 [1]: 80 nM
- IKZF2 Dmax [2]: 96%
- EC50 [2]: 2 nM

SMILES: CC1(C)C2CC(N[C@H]3CCCC[C@@H]3Cc3ccc4c(c3F)CN(C3CCC(=O)NC3=O)C4=O)CC21 (stereo partly drawn)
- IKZF1 Dmax [1]: 60%
- EC50 [1]: 38 nM
- IKZF2 Dmax [2]: 98%
- EC50 [2]: 3 nM
